# Earlier results, collected in publication PMC10018702 (Nature chemistry, 2022).
# Test system: eEF1A-mutant (A399V) HCT116 cells
# Conditions: cited from earlier work
substance,measurement,value
ternatin-4 [reference compound],activity toward eEF1A Ala399Val homozygous human cancer cell line,inactive
